Literature values as cited in patent publication US12440457B2, “Methods of treating suicidality” (Seelos Therapeutics, Inc., priority 2020, dated 2025).

Biological target: NMDA receptor
Conditions: unit inferred; Moaddel et al. 2013; read-out: Ki, binding to the NMDA receptor; cited from earlier work

In the case of `CNC1(c2ccccc2Cl)CCCCC1=O` (racemic) [intranasal racemic ketamine, racemic ketamine], the Ki is given as roughly 1060 nM.
